This note sets out measurements from PMC9502400.

Protein sequences, listed by entry. Tags and fused reporters are not part of them. Residues count along the entry.
UniProt Q00535, whole entry: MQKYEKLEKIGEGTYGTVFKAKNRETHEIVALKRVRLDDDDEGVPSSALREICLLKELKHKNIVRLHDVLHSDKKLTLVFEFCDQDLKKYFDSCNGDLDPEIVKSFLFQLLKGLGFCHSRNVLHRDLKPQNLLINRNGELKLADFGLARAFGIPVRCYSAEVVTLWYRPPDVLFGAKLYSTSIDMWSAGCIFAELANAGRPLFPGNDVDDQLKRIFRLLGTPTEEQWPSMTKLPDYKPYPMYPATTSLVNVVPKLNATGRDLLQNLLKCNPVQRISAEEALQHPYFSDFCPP
UniProt Q15078, 2-307 partner limits assumed: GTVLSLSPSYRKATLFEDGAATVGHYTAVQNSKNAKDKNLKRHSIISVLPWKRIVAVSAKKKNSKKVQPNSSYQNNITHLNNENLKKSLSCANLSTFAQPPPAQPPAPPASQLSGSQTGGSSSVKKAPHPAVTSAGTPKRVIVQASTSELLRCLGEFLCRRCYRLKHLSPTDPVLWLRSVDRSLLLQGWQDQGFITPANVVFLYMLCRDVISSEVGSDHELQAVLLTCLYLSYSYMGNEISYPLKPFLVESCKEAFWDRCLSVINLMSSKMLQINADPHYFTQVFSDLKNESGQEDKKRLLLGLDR

The experiment deals with Cdk5 (Cyclin-dependent kinase 5) (Homo sapiens, UniProt Q00535). Description: Z'-LYTE fluorescence-based in vitro kinase assay, 10-point dose-response.

pIC50: −log10 of the molar value.

One may read the pIC50 as −log10 of the IC50, conventionally taken in molar units. `COCCNc1nc(Nc2ccc(OC)c(OC)c2)nc2[nH]cnc12` gave a pIC50 of 5.90.
Under `O=C(NCCc1cccnc1)N1CC=C(c2c[nH]c3ncccc23)CC1` stands 5.46.
